## Yeast mating assay 2: variants of the scFv Ab-91

From the AlphaSeq antibody data of Engelhart et al. 2022 (doi:10.1038/s41597-022-01779-4), copy in the FLAb collection.

Antigen: PDVDLGDISGINAS, a 14-residue peptide of the SARS-CoV-2 spike HR2 region.

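Phage display of a naive human antibody library on the peptide gave the parent. AAYL51 was designed without a model: most single CDR substitutions and a random sample of double and triple ones. Affinity was read by AlphaSeq, a pooled yeast mating assay with surface-displayed partners. Mating (16 h, 30 °C) was followed by selection of diploids and sequencing of their barcodes. A regression on co-assayed BCL2-family reference pairs converts the normalised counts of each replicate to an apparent Kd. Mating was done three times.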

Parent: Ab-91, a human scFv built as VL, three GGGGS repeats, VH. Only the CDRs of the heavy chain vary.
VL: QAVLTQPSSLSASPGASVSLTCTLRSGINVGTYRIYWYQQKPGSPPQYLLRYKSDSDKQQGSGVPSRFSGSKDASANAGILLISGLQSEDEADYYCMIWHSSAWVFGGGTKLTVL
VH: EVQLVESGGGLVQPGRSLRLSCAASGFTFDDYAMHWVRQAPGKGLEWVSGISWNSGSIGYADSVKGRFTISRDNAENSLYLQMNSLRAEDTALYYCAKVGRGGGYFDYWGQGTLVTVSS

Positions count from residue 1 of the parent VH; S57G puts G in place of S.
The read-out is the apparent dissociation constant on a log10 scale (nM): the lower, the stronger.
An entry "ND" has no value in the source: the pair was not observed among the diploids in that replicate. This suggests poor binding but is not conclusive.

| changes | replicates, log10 nM | control signals |
|---|---|---|
| S57G/I58C | ND / 4.86 / ND | 1/9 (5.44) |
| G50N/N54K/I58G | ND / ND / ND | 2/9 (4.83) |
| D62I/G100K/Y105A | ND / ND / ND | 1/9 (4.13) |
| D31A/S57C/S63G | 4.72 / 5.14 / ND | 3/9 (4.48) |
| I51E/W53S | 4.95 / 4.93 / ND | 3/9 (4.82) |
| H35F/R101E/G103M | ND / 4.96 / ND | 3/9 (4.76) |
| T28D/D62C | ND / ND / ND | 0/9 |
| Y32D/I51L/Y105W | 4.81 / 6.30 / 3.97 | 6/9 (4.19) |
| S52E/V99M/G103H | ND / ND / ND | 3/9 (4.35) |
| S55C/V64A/F106R | 4.05 / 3.66 / ND | 1/9 (3.88) |
| M34P/W53Y/G59S | ND / ND / ND | 1/9 (2.73) |
| G26C/N54H/G59Q | 5.99 / 5.28 / ND | 6/9 (5.17) |
| G50F/I51E/D62T | ND / ND / ND | 0/9 |
| K65I | 4.04 / 4.49 / 3.75 | 7/9 (4.63) |
| F27D/Y32H/G50L | 4.14 / ND / ND | 2/9 (4.59) |
| D31S/F106R | ND / 4.55 / ND | 2/9 (4.20) |
| A61R/G102A/Y105D | 0.67 / 0.84 / 0.11 | 1/9 (3.81) |
| D31Q/N54M/S57N | 3.30 / 3.45 / ND | 0/9 |
| T28Q/G102S/Y108M | 1.20 / 1.42 / 0.81 | 1/9 (5.21) |
| S52H/N54A/R101Q | ND / ND / ND | 0/9 |
| Y32M/D62S | ND / 1.59 / 0.54 | 0/9 |
| G59V/G102S/G104F | ND / ND / ND | 0/9 |
| G56E/R101I/Y105A | 1.60 / 1.56 / 1.30 | 6/9 (4.41) |
| F27D/W53N/Y108C | ND / ND / ND | 0/9 |
| G102A | 3.46 / 4.17 / ND | 3/9 (4.28) |
| M34H/K65Q/G102K | ND / 5.80 / 4.54 | 7/9 (4.58) |
| F27K/T28Q/G102R | 4.00 / 5.35 / 5.61 | 6/9 (4.58) |
| W53F/G102P/Y105W | 5.31 / ND / ND | 0/9 |
| A61L/D62P/G104A | 5.28 / 4.38 / 5.65 | 8/9 (4.84) |
| F27W/A61M/G102V | ND / ND / ND | 1/9 (4.16) |
| G50M/G102K/G103V | ND / ND / ND | 1/9 (3.89) |
| G26I/D62T/K65I | ND / ND / ND | 0/9 |
| Y32Q/A33N | ND / ND / ND | 0/9 |
| I51N/Y60N/V99H | ND / ND / ND | 0/9 |
| F29G/D31V/Y60I | ND / 5.44 / ND | 2/9 (3.19) |
| G50D/A61E | 6.00 / ND / ND | 5/9 (4.89) |
| M34Q/S63F/D107T | ND / ND / ND | 0/9 |
| Y60A/S63D | 3.42 / 3.25 / 3.27 | 4/9 (4.27) |
| G26Y/V64K/R101P | ND / ND / ND | 0/9 |
| F29K/M34E/R101M | ND / ND / ND | 0/9 |
| T28W/V64C | 3.84 / ND / ND | 0/9 |
| T28E/F106T/Y108C | ND / ND / ND | 5/9 (4.01) |

The last 7 entries again:

| changes | replicates, log10 nM | control signals |
|---|---|---|
| G50D/A61E | 6.00 / ND / ND | 5/9 (4.89) |
| M34Q/S63F/D107T | ND / ND / ND | 0/9 |
| Y60A/S63D | 3.42 / 3.25 / 3.27 | 4/9 (4.27) |
| G26Y/V64K/R101P | ND / ND / ND | 0/9 |
| F29K/M34E/R101M | ND / ND / ND | 0/9 |
| T28W/V64C | 3.84 / ND / ND | 0/9 |
| T28E/F106T/Y108C | ND / ND / ND | 5/9 (4.01) |

Background: pairings of library AAYL51 with three empty control strains gave a value in 21% of cases (median 4.54, 5th percentile 3.26). Values in that range, when seen in few replicates, are hard to tell from nonspecific mating. For each scFv, signals with the empty controls are counted beside the result, with their mean in brackets.